Key:
[1] = target: CDK2/Cyclin E2 (Homo sapiens, UniProt P24941); assay: CDK2/CyclinE2 Enzymatic Activity Assay (TR-FRET); conditions: read-out: CDK2_El IC50, CDK2/CyclinE2 1 nM, ATP 1 mM
Procedure: CDK2/CyclinE2 Enzymatic Activity Assay
(§1) The inhibitory activity of compounds was evaluated in vitro using TR-FRET assay with white 384-well low volume microplate (Greiner Bio-One). CDK2/Cyclin E2 catalyzed phosphorylation of peptide in the presence and absence of compounds was measured and used in IC50 determination. Recombinant protein complex CDK2/Cyclin E2, expressed from insect cell, was purchased from ProQinase. Testing compounds were dissolved in DMSO at 1 mM and tested in 9-dose IC50 mode. The reaction mixture was prepared by mixing CDK2/CyclinE2 (1 nM final), ULight-4E-BP1 (50 nM final, Perkinelmer, TRF0128-D), and ATP (1 mM final) in assay buffer (20 mM of HEPES pH 7.4, 1 mM of EGTA, 0.05% BSA, 0.005% Tween 20, and 1 mM TCEP). The compound of interest in DMSO was added to each well in 3-fold serial dilution by dispenser (TECAN D300E) to make a 9.9 μL of reaction mixture. After 20 minutes preincubation at room temperature, 0.1 μL MgCl2 (10 mM final) was added to initiate the reaction. […] The reaction signal was measured by Envision multimode plate reader (PerkinElmer, 2102-0010). IC50 values were determined by fitting the data to the standard 4 parameters with Hill Slope using GraphPad Prism software.

The chains behind the UniProt entries cited, without tags or fusion partners.
UniProt P11802, whole entry: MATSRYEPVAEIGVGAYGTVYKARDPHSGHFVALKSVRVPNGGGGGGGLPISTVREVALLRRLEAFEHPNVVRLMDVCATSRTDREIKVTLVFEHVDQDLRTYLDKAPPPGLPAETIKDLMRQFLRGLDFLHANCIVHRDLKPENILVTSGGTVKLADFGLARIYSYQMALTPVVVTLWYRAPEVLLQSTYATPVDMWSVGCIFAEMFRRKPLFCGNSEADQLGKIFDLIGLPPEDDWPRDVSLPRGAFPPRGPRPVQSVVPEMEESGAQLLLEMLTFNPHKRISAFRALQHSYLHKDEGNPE
UniProt P24385, whole entry partner: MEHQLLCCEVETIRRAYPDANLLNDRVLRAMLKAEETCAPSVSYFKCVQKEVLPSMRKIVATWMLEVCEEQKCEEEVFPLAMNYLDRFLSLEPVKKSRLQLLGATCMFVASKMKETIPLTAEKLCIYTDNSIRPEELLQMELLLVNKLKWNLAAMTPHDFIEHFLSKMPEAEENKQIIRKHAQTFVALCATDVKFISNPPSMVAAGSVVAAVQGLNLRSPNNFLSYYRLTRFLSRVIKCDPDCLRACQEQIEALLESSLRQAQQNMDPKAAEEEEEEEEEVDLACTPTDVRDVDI

[2] = target: CDK4/Cyclin D1 (Homo sapiens, UniProt P11802); assay: CDK4/CyclinD1 Enzymatic Activity Assay (TR-FRET); conditions: read-out: CDK4_D1 IC50, CDK4/CyclinD1 1 nM, ATP 2 mM
Procedure: CDK4/CyclinD1 Enzymatic Activity Assay
as §1, with “(Greiner Bio-One). CDK4/Cyclin D1 catalyzed phosphorylation” for “(Greiner Bio-One). CDK2/Cyclin E2 catalyzed phosphorylation”, “protein complex CDK4/Cyclin D1, expressed from” for “protein complex CDK2/Cyclin E2, expressed from”, “by mixing CDK4/CyclinD1 (1 nM” for “by mixing CDK2/CyclinE2 (1 nM”, “final), ULight-4E-BP1 (100 nM final,” for “final), ULight-4E-BP1 (50 nM final,”, “and ATP (2 mM final)” for “and ATP (1 mM final)”, “dilution by the dispenser (TECAN” for “dilution by dispenser (TECAN”

Row | SMILES | IC50 [1] [nM] | IC50 [2] [nM]
1 | CC(C)C12CCCN1C(=O)c1cc(-c3nc(NC4CCN(S(C)(=O)=O)CC4)ncc3C(F)(F)F)sc12 (single isomer, unassigned) | < 100 | < 100
2 | CC(C)C12CCCCN1C(=O)c1cc(-c3nc(NC4CCN(S(C)(=O)=O)CC4)ncc3C(F)(F)F)sc12 (single isomer, unassigned) | < 100 | < 100

Reference: patent US11939340B2, “CDK inhibitors and their use as pharmaceuticals” (Prelude Therapeutics Incorporated, priority 2022, dated 2024)
